Laboratory results reported in ChEMBL document CHEMBL3638726, “Substituted indole compounds having NOS inhibitory activity” (2013).

The chains behind the UniProt entries cited, without tags or fusion partners.
UniProt Q8MI13, whole entry: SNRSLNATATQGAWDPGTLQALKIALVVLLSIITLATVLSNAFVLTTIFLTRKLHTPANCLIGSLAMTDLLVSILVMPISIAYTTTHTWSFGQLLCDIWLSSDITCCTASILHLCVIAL

Target: 5-hydroxytryptamine 1D receptor (Bos taurus, UniProt Q8MI13)
Experiment: Binding Assay: 5-HT1D binding assays (agonist radioligand)were performed using bovine caudate membranes according to the methods of Heuring and Peroutka (J. Neurosci 1987, 7: 894-903). 5-HT1B (rat cerebral cortex) binding assays (agonist radioligand) were performed according to the method of Hoyer et. al. (Eur. J. Pharmacol. […], 118: 1-12).
Format: tissue-based

IC50 [nM]	SMILES
870	CN(C)CCCc1c[nH]c2ccc(/N=C(\N)c3cccs3)cc12
280	CN1CCC(c2c[nH]c3ccc(NC(=N)c4ccco4)cc23)CC1
